Experimental data taken from patent US12404270B2, “Quinazoline derivatives as LPA receptor 2 inhibitors” (CHIESI FARMACEUTICI S.P.A., priority 2019, dated 2025).

The chains behind the UniProt entries cited, without tags or fusion partners.
UniProt Q9HBW0, whole entry: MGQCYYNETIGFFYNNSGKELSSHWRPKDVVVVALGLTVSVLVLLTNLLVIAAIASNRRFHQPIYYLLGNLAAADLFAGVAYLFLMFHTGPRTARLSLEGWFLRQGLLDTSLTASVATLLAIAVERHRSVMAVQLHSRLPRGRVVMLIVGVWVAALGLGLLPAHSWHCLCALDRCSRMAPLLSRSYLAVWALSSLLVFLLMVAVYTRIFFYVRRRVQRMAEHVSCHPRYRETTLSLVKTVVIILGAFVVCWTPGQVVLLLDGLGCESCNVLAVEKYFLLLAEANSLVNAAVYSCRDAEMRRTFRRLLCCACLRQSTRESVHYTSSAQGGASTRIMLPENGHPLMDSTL

Target: T1, human recombinant LPA2 expressed in CHO cells (Homo sapiens, UniProt Q9HBW0)
T1 construct: expressed in transfected cells; host or cells: CHO (CHO-hLPA2 cell line)
Experiment: FLIPR calcium mobilization assay, LPA2 antagonism in CHO-hLPA2 cells
Type: cell-based
Conditions: inhibition of LPA EC80 Ca2+ response, 30 min pre-incubation
Method: The effectiveness of compounds of the present invention as LPA2 antagonist can be determined at the human recombinant LPA2 expressed in CHO cells, using a FLIPR assay in 384 well format.
CHO-hLPA2 cell lines are cultured in a humidified incubator at 5% CO2 in DMEM/F-12 (1:1) MIXTURE with 2 mM Glutamax, supplemented with 10% of Foetal Bovine Serum, 1 mM Sodium Pyruvate, 11 mM Hepes and 1× Penicillin/Streptomycin. CHO hLPA2 cells are seeded into black walled clear-bottom 384-well plates (#781091, Greiner Bio-One GmbH) at a density of 7,500 cells per well in 50 μl culture media and grown overnight in a 37° C. humidified CO2-incubator. Serial dilutions (1:3 or 1:4, 11 points CRC) of compounds are performed in 100% DMSO at 200× the final concentration. […] The loaded cell plates are transferred into the FLIPR instrument and calcium responses are monitored during the on-line addition protocols. […] Intracellular peak fluorescence values subtracted by baseline fluorescence are exported and analysed to determine IC50 values, respectively. The calcium response is expressed as percentage of the maximal inhibition of the EC80 agonist response.
The raw data (peak height expressed as relative fluorescence units) are normalized and transformed into “percent of inhibition”. […]

Row | IC50 [µM] | SMILES
1 | < 1 | COC(=O)c1cccc2c(N[C@@H](C)CN3CCN(S(=O)(=O)c4ccc(Cl)c(Cl)c4)CC3)ncnc12 (racemic) [Example 10, methyl 4-{[(2S)-1-[4-(3,4-dichlorobenzenesulfonyl)piperazin-1-yl]propan-2-yl]amino}quinazoline-8-carboxylate]
2 | < 1 | COC(=O)Nc1nc(C)c(S(=O)(=O)N2CCN(C[C@H](C)Nc3ncnc4c(C(=O)N(C)C)cccc34)CC2)s1 (racemic) [Example 27, methyl N-[5-({4-[(2S)-2-{[8-(dimethylcarbamoyl)quinazolin-4-yl]amino}propyl]piperazin-1-yl}sulfonyl)-4-methyl-1,3-thiazol-2-yl]carbamate]
